{"source": "ChEMBL document CHEMBL4043291", "about": "“New Inhibitors of Breast Cancer Resistance Protein (ABCG2) Containing a 2,4-Disubstituted Pyridopyrimidine Scaffold” (J Med Chem, 2018)", "system": "ABCB1 (Homo sapiens)", "experiment": "Inhibition of ABCB1 in human A2780adr cells assessed as increase in accumulation of calcein AM at 10 uM preincubated for 30 mins followed by calcein AM addition measured every 60 secs for 60 mins by fluorescence assay relative to control", "conditions": "probe calcein AM"}
{"smiles": "N#Cc1cccc(Nc2nc(-c3ccccc3)nc3ncccc23)c1", "values": [{"measurement": "inhibition at 1 h, 10 µM", "result": "< 25", "unit": "%"}]}
{"smiles": "COc1cccc(-c2nc(Nc3cccc(F)c3)c3cccnc3n2)c1", "values": [{"measurement": "inhibition at 1 h, 10 µM", "result": "< 25", "unit": "%"}]}
